Results on 20 molecules are retold here after patent US9029366B2, “Substituted bicyclic alkoxy pyrazole analogs as allosteric modulators of mGluR5 receptors” (Vanderbilt University, priority 2012, dated 2015).

Sequences of proteins named here, by UniProt entry; tags and fusion partners are left off. Residues count along the entry.
UniProt P41594, 21-1180 isoform 2 limits assumed: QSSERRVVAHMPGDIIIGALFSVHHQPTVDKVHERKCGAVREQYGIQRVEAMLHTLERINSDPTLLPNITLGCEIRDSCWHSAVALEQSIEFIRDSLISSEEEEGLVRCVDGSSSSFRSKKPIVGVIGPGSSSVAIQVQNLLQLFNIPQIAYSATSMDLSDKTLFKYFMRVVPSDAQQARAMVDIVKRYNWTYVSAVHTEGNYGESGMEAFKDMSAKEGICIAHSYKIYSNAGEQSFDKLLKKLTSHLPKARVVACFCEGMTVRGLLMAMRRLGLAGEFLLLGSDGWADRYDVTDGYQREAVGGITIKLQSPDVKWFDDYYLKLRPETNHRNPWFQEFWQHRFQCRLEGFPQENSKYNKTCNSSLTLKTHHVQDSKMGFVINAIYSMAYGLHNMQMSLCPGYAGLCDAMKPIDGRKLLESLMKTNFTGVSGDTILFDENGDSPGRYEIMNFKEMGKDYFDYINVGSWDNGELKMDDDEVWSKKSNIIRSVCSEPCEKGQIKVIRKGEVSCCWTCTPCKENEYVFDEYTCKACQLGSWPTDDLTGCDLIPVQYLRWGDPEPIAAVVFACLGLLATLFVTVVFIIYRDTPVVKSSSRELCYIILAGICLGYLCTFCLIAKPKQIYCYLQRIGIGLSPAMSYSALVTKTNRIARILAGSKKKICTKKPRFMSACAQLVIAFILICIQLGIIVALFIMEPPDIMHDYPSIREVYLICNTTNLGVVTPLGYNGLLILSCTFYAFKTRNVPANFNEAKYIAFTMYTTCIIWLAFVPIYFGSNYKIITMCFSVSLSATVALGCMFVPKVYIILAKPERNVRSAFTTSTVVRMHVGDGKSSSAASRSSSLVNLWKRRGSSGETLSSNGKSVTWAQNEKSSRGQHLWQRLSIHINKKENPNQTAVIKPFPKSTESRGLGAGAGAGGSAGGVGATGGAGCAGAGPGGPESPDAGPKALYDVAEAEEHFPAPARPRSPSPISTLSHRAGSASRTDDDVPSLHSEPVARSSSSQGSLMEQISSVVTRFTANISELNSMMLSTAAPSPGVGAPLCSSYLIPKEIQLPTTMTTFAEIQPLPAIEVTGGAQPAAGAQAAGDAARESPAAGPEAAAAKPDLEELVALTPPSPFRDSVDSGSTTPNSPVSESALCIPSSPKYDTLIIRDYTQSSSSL

Where only a bound is given, the exact number is not on record here.

The assay concerns the target human mGluR5 (Homo sapiens, UniProt P41594). Nature of the assay: Cell-based functional Ca2+ mobilization assay (FDSS), potentiation of glutamate EC20 response, HEK293A cells transfected with human mGluR5a (H10H or H12H cell line). Particulars: H10H cell line expressing recombinant human mGluR5, in presence of glutamate EC20, ** = compound is an antagonist; for Emax (%): % of maximal glutamate response. A general note: Calcium flux is commonly read through the fluorescence of an indicator in the cells.

As usually defined, the pEC50 is the EC50 on a negative log10 scale, so that one unit is a factor of ten. Regarding `N#Cc1cccc(COc2cc3n(n2)CCN(C(=O)c2ccccc2F)C3)c1`, the “Emax (%)” value is 48% and the negative logarithm of the EC50 (pEC50) was determined as 6.91.

On to `N#Cc1ccc(COc2cc3n(n2)CCN(C(=O)c2ccc(F)cc2)C3)cc1`, for which the “Emax (%)” value was 58% and the negative-log EC50 (pEC50) was determined as 6.06.

On to `N#Cc1ccc(COc2cc3n(n2)CCN(C(=O)c2cccc(F)c2)C3)cc1`, for which the “Emax (%)” value turned out to be 28% and the negative-log EC50 (pEC50) is less than 4.52.

For `CC1CN(C(=O)c2ccc(F)cc2)Cc2cc(OCc3ccccc3)nn21` (stereo not shown), the “Emax (%)” value is listed as 60% and the pEC50 stood at 6.64.

Consider `O=C(c1ccc(F)cc1)N1CCn2nc(OCc3cccnc3)cc2C1`, for which the “Emax (%)” value was 43% and the negative logarithm of the EC50 (pEC50) is recorded as less than 5.00.

Regarding `COc1nccnc1C(=O)N1CCn2nc(OCc3ccccc3)cc2C1`, the “Emax (%)” value is reported as 11% and the pEC50 is given as less than 4.52.

For `O=C(C1CCCC1)N1CCn2nc(OCc3ccccc3)cc2C1`, the “Emax (%)” value was determined as 47% and the pEC50 was 6.71.

Take `O=C(c1ccc(F)nc1)N1CCn2nc(OCc3ccccc3)cc2C1`: the “Emax (%)” value amounted to 61% and the pEC50 came to 5.00.

On to `O=C(c1ccc(F)cc1)N1CCCn2nc(OCc3ccccc3)cc2C1`, for which the “Emax (%)” value was determined as 66% and the pEC50 is reported as 6.76.

For `N#Cc1cccc(COc2cc3n(n2)CCN(C(=O)c2cc(F)ccc2F)C3)c1`, the “Emax (%)” value is listed as 66% and the pEC50 is listed as 7.09.

As for `O=C(c1ncccc1F)N1CCn2nc(OCc3ccccc3)cc2C1`, the “Emax (%)” value is on record as 48.5% and the pEC50 stood at 5.33.

On to `O=C(c1ccccc1F)N1CCn2nc(OCc3ccccc3)cc2C1`, for which the “Emax (%)” value came out at 71.5% and the pEC50 is listed as 6.84.

As to `O=C(c1ccc(F)cc1)N1CCCn2nc(OCc3cccc(F)c3)cc2C1`, the “Emax (%)” value was 69% and the pEC50 is recorded as 6.69.

As for `O=C(c1cccc(F)c1)N1CCn2nc(OCc3cccc(F)c3)cc2C1`, the “Emax (%)” value stood at 55.5% and the negative-log EC50 (pEC50) stood at 6.8.

For the molecule `O=C(c1cccc(F)c1)N1CCn2nc(OCc3ccc(F)cc3)cc2C1`, the “Emax (%)” value was 41% and the pEC50 came out at 6.3.

Turning to `O=C(COCC(F)(F)F)N1CCn2nc(OCc3ccccc3)cc2C1`, the “Emax (%)” value was determined as 31% and the pEC50 was less than 5.00.

For `O=C(c1c(F)cccc1F)N1CCn2nc(OCc3ccccc3)cc2C1`, the “Emax (%)” value amounted to 59% and the pEC50 is listed as 6.66.

For the molecule `O=C(C1CC2CCC1C2)N1CCn2nc(OCc3ccccc3)cc2C1` (stereo not shown), the “Emax (%)” value was found to be 71% and the pEC50 came to 6.76.

As for `O=C(c1cccc(F)c1)N1CCn2nc(OCc3ccccc3F)cc2C1`, the “Emax (%)” value came out at 64% and the negative-log EC50 (pEC50) worked out at 6.61.

As to `O=C(C1CC1)N1CCn2nc(OCc3ccccc3)cc2C1`, the “Emax (%)” value was 10** % and the pEC50 is < 4.52 ··.
